Earlier results as cited in patent US20100280046A1, “Methods and Compositions for Treating Prostate Cancer, Benign Prostatic Hypertrophy, Polycystic Ovary Syndrome and Other Conditions” (DIOBEX, INC., priority 2006, published 2010).

Settings: human, in vivo; cited from earlier work

CC(=O)N1CCN(c2ccc(OCC3COC(Cn4ccnc4)(c4ccc(Cl)cc4Cl)O3)cc2)CC1 (racemic) [racemic ketoconazole, 1-acetyl-4-[4-[[2-(2,4-dichlorophenyl)-2-[(1H-imidazol-1-yl)-methyl]-1,3-dioxolan-4-yl]methoxy]phenyl]piperazine]
effect on QTc interval: does not increase the QTc interval
